Drawing on patent US20230322745A1, “FUSED TRICYCLIC DERIVATIVE AND PHARMACEUTICAL APPLICATION THEREOF” (CHIA TAI TIANQING PHARMACEUTICAL GROUP CO., LTD., priority 2020, published 2023), this text covers IC50 and EC50 for 17 molecules.

By UniProt entry, the sequences of proteins in these tests, tags left out.
UniProt P20309, whole entry: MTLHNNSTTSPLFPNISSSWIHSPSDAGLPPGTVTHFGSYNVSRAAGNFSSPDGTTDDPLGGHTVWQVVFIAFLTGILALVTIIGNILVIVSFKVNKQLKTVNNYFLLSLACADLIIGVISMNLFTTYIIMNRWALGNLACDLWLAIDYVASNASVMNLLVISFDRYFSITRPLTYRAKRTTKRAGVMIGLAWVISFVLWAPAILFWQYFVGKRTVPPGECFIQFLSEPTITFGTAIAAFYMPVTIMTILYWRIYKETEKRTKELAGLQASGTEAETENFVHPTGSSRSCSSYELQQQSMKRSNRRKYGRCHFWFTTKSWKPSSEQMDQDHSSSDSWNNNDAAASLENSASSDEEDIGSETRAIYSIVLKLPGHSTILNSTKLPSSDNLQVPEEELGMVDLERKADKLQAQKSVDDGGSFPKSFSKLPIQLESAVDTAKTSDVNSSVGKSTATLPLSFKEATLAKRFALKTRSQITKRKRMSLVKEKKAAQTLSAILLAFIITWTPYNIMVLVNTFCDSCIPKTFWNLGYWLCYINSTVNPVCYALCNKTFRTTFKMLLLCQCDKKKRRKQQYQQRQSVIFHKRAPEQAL
UniProt P08588, whole entry: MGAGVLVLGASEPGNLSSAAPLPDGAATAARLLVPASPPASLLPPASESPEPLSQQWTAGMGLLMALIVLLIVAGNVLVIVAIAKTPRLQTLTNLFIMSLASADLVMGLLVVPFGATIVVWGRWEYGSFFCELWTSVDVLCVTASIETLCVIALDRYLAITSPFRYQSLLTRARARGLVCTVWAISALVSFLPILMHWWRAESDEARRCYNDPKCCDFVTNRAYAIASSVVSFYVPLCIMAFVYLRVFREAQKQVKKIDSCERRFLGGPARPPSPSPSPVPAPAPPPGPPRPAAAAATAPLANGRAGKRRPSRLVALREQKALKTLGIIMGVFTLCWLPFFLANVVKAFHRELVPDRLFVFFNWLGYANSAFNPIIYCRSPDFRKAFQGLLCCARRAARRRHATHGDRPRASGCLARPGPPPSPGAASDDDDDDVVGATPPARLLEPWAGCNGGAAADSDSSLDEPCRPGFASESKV
UniProt P07550, whole entry: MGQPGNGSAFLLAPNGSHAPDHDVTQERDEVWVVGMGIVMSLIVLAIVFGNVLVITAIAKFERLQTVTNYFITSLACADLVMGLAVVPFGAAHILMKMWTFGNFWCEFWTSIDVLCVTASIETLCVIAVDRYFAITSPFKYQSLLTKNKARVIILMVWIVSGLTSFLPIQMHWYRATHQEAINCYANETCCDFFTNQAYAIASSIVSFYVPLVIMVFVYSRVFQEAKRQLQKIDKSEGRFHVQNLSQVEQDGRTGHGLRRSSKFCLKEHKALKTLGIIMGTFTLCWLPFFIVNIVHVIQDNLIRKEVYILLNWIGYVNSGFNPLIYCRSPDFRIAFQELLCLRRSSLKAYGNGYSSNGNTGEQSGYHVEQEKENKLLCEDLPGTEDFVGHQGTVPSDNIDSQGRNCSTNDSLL
UniProt P08172, whole entry: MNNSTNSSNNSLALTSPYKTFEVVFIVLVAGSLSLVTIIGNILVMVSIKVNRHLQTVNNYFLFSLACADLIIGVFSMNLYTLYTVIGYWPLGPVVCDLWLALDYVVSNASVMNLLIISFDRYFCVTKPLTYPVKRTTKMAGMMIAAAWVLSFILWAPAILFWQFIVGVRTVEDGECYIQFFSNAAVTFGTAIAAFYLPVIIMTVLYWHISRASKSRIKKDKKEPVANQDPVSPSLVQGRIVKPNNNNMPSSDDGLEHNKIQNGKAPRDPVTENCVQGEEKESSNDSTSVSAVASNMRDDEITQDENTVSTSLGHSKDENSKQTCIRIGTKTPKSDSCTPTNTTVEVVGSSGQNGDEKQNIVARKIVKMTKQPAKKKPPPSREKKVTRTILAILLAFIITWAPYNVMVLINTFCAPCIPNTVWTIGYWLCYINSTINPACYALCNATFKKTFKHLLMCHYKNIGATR

The target in one experiment is M3 receptor (Homo sapiens (Human), UniProt P20309). As to the kind of experiment: M3 receptor affinity test (3H-NMS competition). Particulars: read-out: IC50, activity against the M3 receptor in vitro; 0.2 nM 3H-NMS, M3 receptor membrane protein, 2 h at room temperature; tested form: formate. How it is done: M3 receptor is a G protein-coupled receptor. In this experiment, the activity of test compounds against the M3 receptor in vitro was assayed by the competition of radioisotope labeled NMS and non-isotope labeled test compounds for an M3 binding site.
(§1) The experiment was performed by a radioisotope affinity assay. The M3 receptor membrane protein was prepared at 10 μg/mL by Biology Department of WuXi AppTec, and compounds were serially diluted in a 2.5-fold gradient in DMSO to obtain 10 concentrations. Radioisotope 3H-NMS was prepared at 0.2 nM in an assay buffer (10 mM HEPES, 1 mM MgCl2, pH 7.40). In formal testing, the experimental system comprising 1 of the test compound, 100 μL of M3 receptor membrane protein and 100 μL of radioisotope was shaken in a shaker at 300 RPM for 2 h at room temperature. A GF/C plate (Perkin Elmer, Cat No. 6055690) was prefoamed with 0.3% PEI, and the membrane proteins in the reaction solution were collected by filtration onto the GF/C plate. The signal values were read by a Perkin Elmer Microbeta2 instrument and the inhibition rate for each concentration point was shown as a percentage.

The target in experiment [1] is β1 receptor (cells expressing human ADRB1 gene) (Homo sapiens (Human), UniProt P08588). As to the kind of experiment: Agonistic effect on β1 receptor by HTRF cAMP method. How it is done: β1 receptor is a G protein-coupled receptor, which is mainly coupled with Gs protein, and can activate adenylate cyclase activity through the Gs protein after being activated by binding to the ligand, thereby increasing the level of intracellular cAMP. In this experiment, the agonistic activity of the compounds against the β1 receptor in vitro was assayed by the cAMP kit.
(§2) β1 cells (expressing human ADRB1 gene) from ICE Bioscience Inc. were grown under standard conditions. The cells were collected and diluted with 1× Stimulation Buffer, and 9 μL of the cell dilution was added to a white low-volume 384-well plate with 4000 cells seeded in each well. Compounds were serially diluted in DMSO in a 5-fold gradient to obtain 10 concentrations. Before testing, compounds that had been serially diluted in DMSO were subjected to 100-fold dilution with 1× Stimulation Buffer to obtain compound working solutions. The concentration of the vehicle DMSO was 0.1%. Eu-cAMP and ULight™-anti-cAMP were diluted to the working concentration with Detection buffer. 5 μL of Eu-cAMP diluent and 5 μL of ULight™-anti-cAMP diluent were sequentially added into corresponding experiment wells. After 1 h of incubation at room temperature, readings at 665 nm and 620 nm were measured under the excitation wavelength of 330 nm using a Biotek microplate reader. The activity of the compounds was obtained by plotting through Ratio (665/620) against the concentration of the compounds, fitting the curve by a nonlinear regression method using GraphPad Prism 7 software and calculating EC50.
On the technique in general: In TR-FRET formats the signal depends on donor and acceptor labels being close together.

For experiment [2], the target named is β2 receptor (cells expressing human ADRB2 gene) (Homo sapiens (Human), UniProt P07550). As to the kind of experiment: Agonistic effect on β2 receptor by HTRF cAMP method. How it is done:
β2 receptor is a G protein-coupled receptor, which is mainly coupled with Gs protein, and can activate adenylate cyclase activity through the Gs protein after being activated by binding to the ligand, thereby increasing the level of intracellular cAMP. In this experiment, the agonistic activity of the compounds against the β2 receptor in vitro was assayed by the cAMP kit.
as §2, with “β2” for “β1”, “ADRB2” for “ADRB1”, “1000” for “4000”

The target in the next experiment is M2 receptor (Homo sapiens (Human), UniProt P08172). As to the kind of experiment: M2 receptor affinity test (3H-NMS competition). Particulars: read-out: IC50, activity against the M2 receptor in vitro, 0.2 nM 3H-NMS, M2 receptor membrane protein, 2 h at room temperature. How it is done:
M2 receptor is a G protein-coupled receptor. In this experiment, the activity of test compounds against the M2 receptor in vitro was assayed by the competition of radioisotope labeled NMS and non-isotope labeled test compounds for an M2 binding site.
as §1, with “The M2 receptor membrane” for “The experiment was performed by a radioisotope affinity assay. The M3 receptor membrane”, “prepared at 100 μg/mL by” for “prepared at 10 μg/mL by”, “comprising 1 μL of the” for “comprising 1 of the”, “μL of M2 receptor membrane” for “μL of M3 receptor membrane”

Setting [3] is: read-out: EC50, agonistic activity against the β1 receptor in vitro, 1 h incubation at room temperature, tested form: formate.
[4] abbreviates: read-out: EC50, agonistic activity against the β2 receptor in vitro, 1 h incubation at room temperature, tested form: formate.
Setting [5] is: read-out: EC50, agonistic activity against the β1 receptor in vitro, 1 h incubation at room temperature, tested form: TFA.
Where [6] appears, read: read-out: EC50, agonistic activity against the β2 receptor in vitro, 1 h incubation at room temperature, tested form: TFA.

SMILES strings stand for the structures. Counter-ions that a name gives are not always drawn. Like-named read-outs stand apart in the source and are kept apart here.

As a reminder, the IC50 is the concentration needed to halve the response being measured. With `O=C(OC1CC2(C1)CN(CCCn1nnc3cc(CNC[C@H](O)c4ccc(O)c5[nH]c(=O)ccc45)c4c(c31)CCC4)C2)C(O)(c1cccs1)c1ccc(-c2ccccc2)s1` (single isomer, unassigned), the IC50 on M3 receptor was 9.36 nM.

The term EC50 denotes the midpoint of the concentration-response curve. As for `CN(CCCn1nnc2cc(CNC[C@H](O)c3ccc(O)c4[nH]c(=O)ccc34)c3c(c21)CCC3)[C@H]1CC[C@H](OC(=O)C(O)(c2cccs2)c2ccc(C(C)(C)C)s2)CC1` (single isomer, unassigned) [Formate salt of compound 5], the EC50 in experiment [1] (setting [3]) came out at 231 nM; in experiment [2] (setting [4]) it was 2.63 nM. At M3 receptor, the IC50 was 13.8 nM.

As for `CN(CCCn1nnc2cc(CNC[C@H](O)c3ccc(O)c4[nH]c(=O)ccc34)c3c(c21)CCC3)[C@H]1CC[C@H](OC(=O)C(O)(c2cccs2)c2ccc(C(C)(C)C)s2)CC1` (single isomer, unassigned) [Formate salt of compound 6], the EC50 in experiment [1] (setting [3]) is 278 nM.

For the molecule `O=C(OC1CC2(C1)CN(CCCn1nnc3cc(CNC[C@H](O)c4ccc(O)c5[nH]c(=O)ccc45)c4c(c31)CCC4)C2)C(O)(c1cccs1)c1cc2ccccc2s1` (single isomer, unassigned) [Formate salt of compound 20], the IC50 on M3 receptor came out at 31.1 nM.

`O=C(OC1CC2(C1)CN(CCCn1nnc3cc(CNC[C@H](O)c4ccc(O)c5[nH]c(=O)ccc45)c4c(c31)CCC4)C2)C(O)(c1cccs1)c1cc2ccccc2s1` (single isomer, unassigned) [Formate salt of compound 21]: the concentration giving a half-maximal response (EC50) in experiment [1] (setting [3]) came out at 276 nM.

As to `CN(CCCn1nnc2cc(CNC[C@H](O)c3ccc(O)c4[nH]c(=O)ccc34)c3c(c21)CCC3)[C@H]1CC[C@H](OC(=O)C(O)(c2cccs2)c2ccc(-c3ccccc3)s2)CC1` (single isomer, unassigned) [Formate salt of compound 22], the EC50 in experiment [2] (setting [4]) is 20.8 nM.

Take `CN(CCCn1nnc2cc(CNC[C@H](O)c3ccc(O)c4[nH]c(=O)ccc34)c3c(c21)CCC3)[C@H]1CC[C@H](OC(=O)C(O)(c2cccs2)c2ccc(-c3ccccc3)s2)CC1` (single isomer, unassigned) [Formate salt of compound 23]: the EC50 in experiment [2] (setting [4]) was 16.8 nM.

As to `O=C(OC1COC2(CCN(CCCn3nnc4cc(CNC[C@H](O)c5ccc(O)c6[nH]c(=O)ccc56)c5c(c43)CCC5)CC2)C1)C(O)(c1cccs1)c1cccs1` (single isomer, unassigned) [Formate salt of compound 24], the values for the EC50 in experiment [1] (setting [3]) and in experiment [2] (setting [4]) were 155 nM and 158 nM, respectively. In addition, the results for the IC50 at M3 receptor and on M2 receptor (tested form: formate) were 0.22 nM and 0.014 nM, respectively.

For the molecule `O=C(OC1COC2(CCN(CCCn3nnc4cc(CNC[C@H](O)c5ccc(O)c6[nH]c(=O)ccc56)c5c(c43)CCC5)CC2)C1)C(O)(c1cccs1)c1cccs1` (single isomer, unassigned) [Formate salt of compound 25], the EC50 in experiment [1] (setting [3]) worked out at 193 nM; in experiment [2] (setting [4]) it was 0.388 nM. The IC50 at M3 receptor came to 0.179 nM; on M2 receptor (tested form: formate), 0.03 nM.

For the molecule `Cc1ccc(C(O)(C(=O)O[C@H]2CC[C@H](N(C)CCCn3nnc4cc(CNC[C@H](O)c5ccc(O)c6[nH]c(=O)ccc56)c5c(c43)OCO5)CC2)c2cccs2)s1` (single isomer, unassigned) [Formate salt of compound 34], the results for the EC50 in experiment [1] (setting [3]) and in experiment [2] (setting [4]) were 37.3 nM and 0.405 nM, respectively. Moreover, the IC50 turned out to be 0.657 nM at M3 receptor and 0.248 nM at M2 receptor (tested form: formate).

Take `Cc1ccc(C(O)(C(=O)O[C@H]2CC[C@H](N(C)CCCn3nnc4cc(CNC[C@H](O)c5ccc(O)c6[nH]c(=O)ccc56)c5c(c43)OCO5)CC2)c2cccs2)s1` (single isomer, unassigned) [Formate salt of compound 35]: the results for the EC50 in experiment [1] (setting [3]) and in experiment [2] (setting [4]) were 55.6 nM and 0.671 nM, respectively. Moreover, the IC50 on M3 receptor was determined as 0.213 nM; on M2 receptor (tested form: formate) it was 0.588 nM.

Take `Cc1ccc(C(O)(C(=O)O[C@H]2CC[C@H](N(C)CCCn3nnc4cc(CNC[C@H](O)c5ccc(O)c6[nH]c(=O)ccc56)c5c(c43)COC5)CC2)c2cccs2)s1` (single isomer, unassigned) [Formate salt of compound 36]: the EC50 in experiment [1] (setting [3]) worked out at 50.5 nM; in experiment [2] (setting [4]) it was 2.45 nM. The half-maximal inhibitory concentration (IC50) worked out at 0.792 nM at M3 receptor and 1.74 nM at M2 receptor (tested form: formate).

As for `Cc1ccc(C(O)(C(=O)O[C@H]2CC[C@H](N(C)CCCn3nnc4cc(CNC[C@H](O)c5ccc(O)c6[nH]c(=O)ccc56)c5c(c43)COC5)CC2)c2cccs2)s1` (single isomer, unassigned) [Formate salt of compound 37], the EC50 in experiment [1] (setting [3]) was 48 nM; in experiment [2] (setting [4]) it was 1.93 nM. In addition, the IC50 was found to be 0.871 nM at M3 receptor and 2.01 nM on M2 receptor (tested form: formate).

Consider `O=C(OC1CCN(CCCn2nnc3cc(CNC[C@H](O)c4ccc(O)c5[nH]c(=O)ccc45)c4c(c32)CCC4)CC1)C(O)(c1cccs1)c1ccc(Br)s1` (single isomer, unassigned) [Trifluoroacetate salt of compound 8], for which the EC50 came out at 395 nM in experiment [1] (setting [5]) and 1.62 nM in experiment [2] (setting [6]).

As to `O=C(OC1CCN(CCCn2nnc3cc(CNC[C@H](O)c4ccc(O)c5[nH]c(=O)ccc45)c4c(c32)CCC4)CC1)C(O)(c1cccs1)c1ccc(Br)s1` (single isomer, unassigned) [Trifluoroacetate salt of compound 9], in experiment [1] (setting [5]), the concentration giving a half-maximal response (EC50) was determined as 696 nM.

With `Cc1ccc(C(O)(C(=O)O[C@H]2CC[C@H](N(C)CCCn3nnc4cc(CNC[C@H](O)c5ccc(O)c6[nH]c(=O)ccc56)c5c(c43)CCC5)CC2)c2cccs2)s1` (single isomer, unassigned) [Trifluoroacetate salt of compound 13], the EC50 in experiment [1] (setting [5]) was 142 nM; in experiment [2] (setting [6]), 1.73 nM. For the same molecule, the concentration for half-maximal inhibition (IC50) at M2 receptor (tested form: TFA) stood at 0.24 nM.

Turning to `Cc1ccc(C(O)(C(=O)O[C@H]2CC[C@H](N(C)CCCn3nnc4cc(CNC[C@H](O)c5ccc(O)c6[nH]c(=O)ccc56)c5c(c43)CCC5)CC2)c2cccs2)s1` (single isomer, unassigned) [Trifluoroacetate salt of compound 14], the EC50 in experiment [1] (setting [5]) worked out at 127 nM.
